≈ marks a conversion by molar mass, not a printed value. Where “and” joins values, the source holds several entries; their conditions need not be identical. Equal entries are not always repeated. Where two headings read alike, the source gives them in different places.

The subject of data set [1] is LoVo (human colon adenocarcinoma) cells. Particulars: human.
Data set [2] relates to P388/DX Johnson leukemia.
Data set [3] relates to LoVo (human colon adenocarcinoma) cells. Description: cells. Particulars: 4 h, read-out: ID50 (IC50, concentration inhibiting by 50% colony growth), LoVo.
The subject of data set [4] is LoVo-Doxo-resistant (LoVo/DX) cells. Briefly: cells. Type of data set: cell-based. As to conditions: Homo sapiens, 4 h, read-out: ID50 (IC50, concentration inhibiting by 50% colony growth), LoVo/DX.
Data set [5] concerns P388/DX Johnson leukemia. The source holds these as a separate data set.
The mark [6] stands for this setting: iv day 1, 0.09 mg/kg (optimal dose).
[7] abbreviates: iv day 1, 0.66 mg/kg as content of 13b (optimal dose).
[8] abbreviates: iv day 1, 1 mg/kg as content of 13b (not marked optimal).

In the case of `COc1cccc2c1C(=O)c1c(O)c3c(c(O)c1C2=O)C[C@@](O)(C(=O)COC1(OCC(=O)O)CCCCC1)C[C@@H]3O[C@H]1C[C@H](N2CCO[C@H](OC)C2)[C@H](O)[C@H](C)O1` [Compound 3', 14-O-(1-carboxymethyloxy-cyclohexyl)-3'-deamino-3'-[2(S)-methoxy-4-morpholinyl]doxorubicin], the “times less cytotoxic than parent compound 13b” value in data set [1] is 15-20 times. For the same compound, in data set [2] (mouse, in vivo), the “T/C % (median survival time; % over untreated controls)” value is reported as 184% and the Toxic deaths was 0/10. In addition, the IC50 in data set [3] came out at 0.24 µg/mL (≈ 0.3 µM).
`COc1cccc2c1C(=O)c1c(O)c3c(c(O)c1C2=O)C[C@@](O)(C(=O)CO)C[C@@H]3O[C@H]1C[C@H](N2CCO[C@H](OC)C2)[C@H](O)[C@H](C)O1` [Compound 13b]: the IC50 in data set [4] was 0.033 µg/mL (≈ 0.0513 µM); in data set [3], 0.016 µg/mL (≈ 0.0249 µM). Also, the “T/C % (median survival time; % over untreated controls)” value in data set [2] (ip day 1, 0.1 mg/kg) amounted to 136%; in data set [2] (ip day 1, 0.125 mg/kg), 155%. For the same compound, the Toxic deaths in data set [2] (ip day 1, 0.1 mg/kg) is recorded as 0/10; in data set [2] (ip day 1, 0.125 mg/kg), 1/10; in data set [5] (iv day 1, 0.076 mg/kg) it was 0/28; in data set [5] (setting [6]), 0/39. For the same compound, the T/C % in data set [5] (iv day 1, 0.076 mg/kg) is given as 177%; in data set [5] (setting [6]), 192%.
For the compound `COc1cccc2c1C(=O)c1c(O)c3c(c(O)c1C2=O)C[C@@](O)(C(=O)CO)C[C@@H]3O[C@H]1C[C@H](N)[C@H](O)[C@H](C)O1` [Doxorubicin], the “T/C % (median survival time; % over untreated controls)” value in data set [2] (mouse, in vivo) is on record as 100%. In data set [5] (mouse, in vivo), the T/C % is 105% and 100%. Moreover, in data set [3], the IC50 worked out at 0.06 µg/mL (≈ 0.11 µM).
Consider “copolymer of 3-methacryloylamino-2-hydroxypropane and 14-O-{1-[4-(6-methacryloylaminocaproyl)piperazinlyl]-carbonylmethyloxy-cyclohexyl}-3'-deamino-3'[2(S)-methoxy-4-morpholinyl]doxorubicin [1^vii]”, for which, in data set [5] (setting [7]), the T/C % is 233% and the Toxic deaths is 0/10. For the same compound, in data set [5] (setting [8]), the T/C % is on record as 177% and the Toxic deaths is 0/10.
